Data on 65 compounds can be found in paper PMC8842224 (2022).

The chains behind the UniProt entries cited, without tags or fusion partners.
UniProt P0DMS8, whole entry: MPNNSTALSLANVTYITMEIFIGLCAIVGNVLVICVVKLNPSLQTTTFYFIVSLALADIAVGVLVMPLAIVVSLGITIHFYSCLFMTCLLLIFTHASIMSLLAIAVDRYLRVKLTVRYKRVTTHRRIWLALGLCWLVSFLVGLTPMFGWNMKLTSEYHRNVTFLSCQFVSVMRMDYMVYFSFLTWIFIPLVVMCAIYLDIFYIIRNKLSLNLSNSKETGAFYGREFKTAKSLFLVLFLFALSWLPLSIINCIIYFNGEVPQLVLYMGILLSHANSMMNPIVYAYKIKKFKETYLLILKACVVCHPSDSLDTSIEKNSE

The target of one assay is human A3AR (Homo sapiens, UniProt P0DMS8). Description: biochemical. The note with it: 3 h, read-out: hA3 percentage displacement of specific binding at 1 μM.
Another assay addresses T1, human A2BAR (Homo sapiens, UniProt P29275).
T1 sequence (P29275 1-332): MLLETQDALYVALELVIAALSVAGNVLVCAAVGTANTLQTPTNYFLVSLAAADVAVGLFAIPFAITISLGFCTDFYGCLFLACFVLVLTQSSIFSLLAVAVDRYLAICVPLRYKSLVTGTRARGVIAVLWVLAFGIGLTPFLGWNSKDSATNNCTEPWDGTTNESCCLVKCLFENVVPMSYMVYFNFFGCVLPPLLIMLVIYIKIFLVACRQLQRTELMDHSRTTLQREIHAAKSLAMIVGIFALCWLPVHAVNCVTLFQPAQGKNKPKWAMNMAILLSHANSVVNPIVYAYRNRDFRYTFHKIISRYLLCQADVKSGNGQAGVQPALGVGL
Description: biochemical. The note with it: read-out: hA2B percentage displacement of specific binding at 1 μM.

Another assay addresses human A2AAR (Homo sapiens, UniProt P29274). The note with it: [3H]ZM241385, human HeLa cells, n = 2.

Regarding `N#Cc1c(-c2ccccc2)nc(N)nc1-c1ccccc1` [18a], the inhibition at 1 µM on human A3AR came out at 1%; on human A2BAR, 33%.
On the same counts, the results for `N#Cc1c(-c2ccccc2)nc(N)nc1-c1ccsc1` [18aa] are 1% and 40%.
As for `N#Cc1c(-c2ccccc2)nc(N)nc1-c1ccncc1` [18ab], the results for the inhibition at 1 µM on human A3AR and on human A2BAR were 12% and 1%, respectively.
On the same counts, the results for `N#Cc1c(-c2ccccc2)nc(N)nc1-c1cccnc1` [18ac] are 1% and 20%.
On the same counts, the results for `N#Cc1c(-c2ccccc2)nc(N)nc1-c1ccc2ccccc2c1` [18af] are 8% and 3%.
Consider `N#Cc1c(-c2cccc(Cl)c2)nc(N)nc1-c1cccc(Cl)c1` [18ah], for which the inhibition at 1 µM on human A3AR turned out to be 1%.
As to `N#Cc1c(-c2cccc(Cl)c2)nc(N)nc1-c1cc(Cl)cc(Cl)c1` [18ai], the inhibition at 1 µM on human A3AR worked out at 2%; on human A2BAR, 9%.
In the case of `N#Cc1c(-c2cccc(Cl)c2)nc(N)nc1-c1ccc2c(c1)OCO2` [18aj], at human A3AR, the inhibition at 1 µM amounted to 26%.
Regarding `N#Cc1c(-c2ccc(F)cc2)nc(N)nc1-c1ccc2c(c1)OCO2` [18ak], the inhibition at 1 µM was found to be 22% on human A3AR and 2% on human A2BAR.
On to `N#Cc1c(-c2ccccc2)nc(N)nc1-c1ccccc1F` [18b], for which the inhibition at 1 µM on human A3AR came to 8%; at human A2BAR, 34%.
Regarding `COc1ccccc1-c1nc(N)nc(-c2ccccc2)c1C#N` [18d], the inhibition at 1 µM worked out at 8% on human A3AR and 14% on human A2BAR.
Take `N#Cc1c(-c2ccccc2)nc(N)nc1-c1cccc(F)c1` [18e]: the inhibition at 1 µM on human A3AR came to 2%.
Still for that read-out and setting: the result for `N#Cc1c(-c2ccccc2)nc(N)nc1-c1cccc(Cl)c1` [18f] reads 1%; that for `COc1cccc(-c2nc(N)nc(-c3ccccc3)c2C#N)c1` [18g], 12%.
Still for that read-out and setting: the result for `N#Cc1c(-c2ccccc2)nc(N)nc1-c1cccc(O)c1` [18h] reads 9%.
`N#Cc1cccc(-c2nc(N)nc(-c3ccccc3)c2C#N)c1` [18i]: the values for the inhibition at 1 µM on human A3AR and on human A2BAR were 1% and 19%, respectively.
Take `N#Cc1c(-c2ccccc2)nc(N)nc1-c1ccc(F)cc1` [18j]: the figures for the inhibition at 1 µM at human A3AR and on human A2BAR were 10% and 7%, respectively.
On the same counts, the results for `N#Cc1c(-c2ccccc2)nc(N)nc1-c1ccc(Br)cc1` [18k] are 2% and 8%.
As to `COc1ccc(-c2nc(N)nc(-c3ccccc3)c2C#N)cc1` [18l], the inhibition at 1 µM turned out to be 11% on human A3AR and 8% at human A2BAR.
`N#Cc1c(-c2ccccc2)nc(N)nc1-c1ccc(O)cc1` [18m]: the inhibition at 1 µM amounted to 18% at human A3AR and 14% on human A2BAR.
On the same counts, the results for `Cc1ccc(-c2nc(N)nc(-c3ccccc3)c2C#N)cc1` [18n] are 16% and 28%.
For the compound `N#Cc1c(-c2ccccc2)nc(N)nc1-c1ccc(F)cc1F` [18o], the inhibition at 1 µM was 12% on human A3AR and 7% on human A2BAR.
On the same counts, the results for `COc1ccc(-c2nc(N)nc(-c3ccccc3)c2C#N)c(OC)c1` [18q] are 1% and 13%.
With `N#Cc1c(-c2ccccc2)nc(N)nc1-c1cc(Cl)cc(Cl)c1` [18s], the inhibition at 1 µM at human A3AR amounted to 10%; on human A2BAR, 1%.
In the case of `COc1cc(OC)cc(-c2nc(N)nc(-c3ccccc3)c2C#N)c1` [18t], the inhibition at 1 µM at human A3AR came out at 3%.
For the compound `COc1cc(-c2nc(N)nc(-c3ccccc3)c2C#N)cc(OC)c1OC` [18v], the figures for the inhibition at 1 µM on human A3AR and at human A2BAR were 13% and 3%, respectively.
On the same counts, the results for `N#Cc1c(-c2ccccc2)nc(N)nc1-c1c(F)cc(F)cc1F` [18w] are 19% and 2%.
As for `N#Cc1c(-c2ccccc2)nc(N)nc1-c1ccco1` [18x], the inhibition at 1 µM on human A3AR came out at 9%.
As to `N#Cc1c(-c2ccccc2)nc(N)nc1-c1cccs1` [18y], the inhibition at 1 µM at human A3AR stood at 41%.
As to `N#Cc1c(-c2ccccc2)nc(N)nc1-c1ccoc1` [18z], the inhibition at 1 µM at human A3AR turned out to be 3%; on human A2BAR, 37%.
On the same counts, the results for `CNc1nc(-c2ccccc2)c(C#N)c(-c2ccccc2)n1` [19a] are 2% and 14%.
For the compound `COc1ccc(-c2nc(Nc3ccccc3)nc(-c3ccccc3)c2C#N)cc1` [19ac], the inhibition at 1 µM at human A3AR came out at 31%.
For the compound `CNc1nc(-c2ccccc2)c(C#N)c(-c2ccc(C)cc2)n1` [19ad], the inhibition at 1 µM on human A3AR came out at 7%. At human A2AAR, the “hA2A percentage displacement of specific binding at 1 μM” value (from here on “hA2A percentage displacement”) is on record as 11%.
For the compound `Cc1ccc(-c2nc(Nc3ccccc3)nc(-c3ccccc3)c2C#N)cc1` [19ae], the inhibition at 1 µM is 1% on human A3AR and 4% on human A2BAR.
On the same counts, the results for `N#Cc1c(-c2ccccc2)nc(Nc2ccccc2)nc1-c1cc(F)cc(F)c1` [19ai] are 1% and 2%.
On to `N#Cc1c(-c2ccccc2)nc(Nc2ccccc2)nc1-c1cc(Cl)cc(Cl)c1` [19al], for which the figures for the inhibition at 1 µM on human A3AR and at human A2BAR were 1% and 4%, respectively.
Take `CNc1nc(-c2ccccc2)c(C#N)c(-c2cc(OC)cc(OC)c2)n1` [19am]: the inhibition at 1 µM on human A3AR came out at 2%.
Still for that read-out and setting: the result for `COc1cc(OC)cc(-c2nc(Nc3ccccc3)nc(-c3ccccc3)c2C#N)c1` [19an] reads 1%; that for `CCNc1nc(-c2ccccc2)c(C#N)c(-c2ccc3c(c2)OCO3)n1` [19ap], 1%; that for `N#Cc1c(-c2ccccc2)nc(Nc2ccccc2)nc1-c1ccc2c(c1)OCO2` [19aq], 25%.
In the case of `CNc1nc(-c2ccccc2)c(C#N)c(-c2cc(OC)c(OC)c(OC)c2)n1` [19ar], the inhibition at 1 µM at human A3AR was found to be 15%; at human A2BAR, 1%.
For the compound `COc1cc(-c2nc(Nc3ccccc3)nc(-c3ccccc3)c2C#N)cc(OC)c1OC` [19as], the inhibition at 1 µM is 20% on human A3AR and 1% at human A2BAR.
On the same counts, the results for `CNc1nc(-c2ccccc2)c(C#N)c(-c2ccco2)n1` [19at] are 4% and 51%.
Regarding `N#Cc1c(-c2ccccc2)nc(Nc2ccccc2)nc1-c1ccco1` [19au], the inhibition at 1 µM at human A3AR worked out at 4%.
On to `N#Cc1c(-c2ccccc2)nc(Nc2ccccc2)nc1-c1cccs1` [19aw], for which the figures for the inhibition at 1 µM on human A3AR and at human A2BAR were 3% and 1%, respectively.
For `N#Cc1c(-c2ccccc2)nc(Nc2ccccc2)nc1-c1ccoc1` [19ay], the values for the inhibition at 1 µM at human A3AR and at human A2BAR were 2% and 14%, respectively.
With `CCNc1nc(-c2ccccc2)c(C#N)c(-c2ccccc2)n1` [19b], the inhibition at 1 µM on human A3AR stood at 16%; on human A2BAR it was 17%.
With `N#Cc1c(-c2ccccc2)nc(Nc2ccccc2)nc1-c1ccsc1` [19ba], the inhibition at 1 µM on human A3AR came out at 22%; on human A2BAR, 17%.
As for `CCNc1nc(-c2ccccc2)c(C#N)c(-c2cccnc2)n1` [19be], the inhibition at 1 µM at human A3AR worked out at 2%.
On the same count and under the same terms, the result for `N#Cc1c(-c2ccccc2)nc(Nc2ccccc2)nc1-c1cccnc1` [19bf] reads 17%.
As to `CNc1nc(-c2ccccc2)c(C#N)c(C2CCCCC2)n1` [19bg], the inhibition at 1 µM on human A3AR was determined as 11%; on human A2BAR it was 1%.
On to `COc1ccc(-c2nc(Nc3ccccc3)nc(-c3ccc(OC)cc3)c2C#N)cc1` [19bn], for which the values for the inhibition at 1 µM on human A3AR and on human A2BAR were 1% and 2%, respectively.
On the same counts, the results for `N#Cc1c(-c2ccccc2)nc(Nc2ccccc2)nc1-c1ccccc1` [19c] are 4% and 34%.
Regarding `CNc1nc(-c2ccccc2)c(C#N)c(-c2ccccc2F)n1` [19d], the inhibition at 1 µM on human A3AR was found to be 3%. Further, the “hA2A percentage displacement” value on human A2AAR was 15%.
With `N#Cc1c(-c2ccccc2)nc(Nc2ccccc2)nc1-c1ccccc1F` [19e], the inhibition at 1 µM on human A3AR came out at 2%.
On to `CNc1nc(-c2ccccc2)c(C#N)c(-c2ccccc2OC)n1` [19h], for which the figures for the inhibition at 1 µM at human A3AR and on human A2BAR were 1% and 9%, respectively.
Regarding `CNc1nc(-c2ccccc2)c(C#N)c(-c2cccc(F)c2)n1` [19j], on human A3AR, the inhibition at 1 µM came to 1%. Moreover, at human A2AAR, the “hA2A percentage displacement” value was determined as 11%.
On the same counts, the results for `N#Cc1c(-c2ccccc2)nc(Nc2ccccc2)nc1-c1cccc(F)c1` [19k] are 9% and 12%.
Regarding `CCNc1nc(-c2ccccc2)c(C#N)c(-c2cccc(Cl)c2)n1` [19m], the inhibition at 1 µM worked out at 2% at human A3AR and 33% at human A2BAR.
For `N#Cc1c(-c2ccccc2)nc(Nc2ccccc2)nc1-c1cccc(Cl)c1` [19n], the values for the inhibition at 1 µM at human A3AR and on human A2BAR were 15% and 12%, respectively.
Turning to `CNc1nc(-c2ccccc2)c(C#N)c(-c2cccc(O)c2)n1` [19o], the inhibition at 1 µM turned out to be 9% at human A3AR and 29% at human A2BAR.
On the same counts, the results for `CNc1nc(-c2ccccc2)c(C#N)c(-c2cccc(OC)c2)n1` [19q] are 3% and 31%.
In the case of `COc1cccc(-c2nc(Nc3ccccc3)nc(-c3ccccc3)c2C#N)c1` [19r], the inhibition at 1 µM stood at 9% on human A3AR and 15% on human A2BAR.
Regarding `CNc1nc(-c2ccccc2)c(C#N)c(-c2cccc(C#N)c2)n1` [19s], the inhibition at 1 µM on human A3AR was 1%.
Same read-out and setting: the result for `CCNc1nc(-c2ccccc2)c(C#N)c(-c2cccc(C#N)c2)n1` [19t] reads 1%.
